In PMC4140284, “Human UTY(KDM6C) Is a Male-specific N^ϵ-Methyl Lysyl Demethylase” (The Journal of Biological Chemistry, 2014):

Tested on: UTY(KDM6C)
Details: absence of prime substrate, 1H NMR
Source text: The total echo time was 48 ms.

O=C(O)CCC(=O)C(=O)O [2OG, 2-oxoglutarate]
rate of uncoupled 2OG turnover: comparable with that observed for both recombinant KDM6A and KDM6B
